The results in this text go back to patent US6846802B2, “Macrocyclic NS3-serine protease inhibitors of hepatitis C virus comprising N-cyclic P2 moieties” (priority 2000, dated 2005).

Amino acid sequences for entries named in this document (tags omitted). Residues count along the entry.
UniProt P27958, 1027-1657: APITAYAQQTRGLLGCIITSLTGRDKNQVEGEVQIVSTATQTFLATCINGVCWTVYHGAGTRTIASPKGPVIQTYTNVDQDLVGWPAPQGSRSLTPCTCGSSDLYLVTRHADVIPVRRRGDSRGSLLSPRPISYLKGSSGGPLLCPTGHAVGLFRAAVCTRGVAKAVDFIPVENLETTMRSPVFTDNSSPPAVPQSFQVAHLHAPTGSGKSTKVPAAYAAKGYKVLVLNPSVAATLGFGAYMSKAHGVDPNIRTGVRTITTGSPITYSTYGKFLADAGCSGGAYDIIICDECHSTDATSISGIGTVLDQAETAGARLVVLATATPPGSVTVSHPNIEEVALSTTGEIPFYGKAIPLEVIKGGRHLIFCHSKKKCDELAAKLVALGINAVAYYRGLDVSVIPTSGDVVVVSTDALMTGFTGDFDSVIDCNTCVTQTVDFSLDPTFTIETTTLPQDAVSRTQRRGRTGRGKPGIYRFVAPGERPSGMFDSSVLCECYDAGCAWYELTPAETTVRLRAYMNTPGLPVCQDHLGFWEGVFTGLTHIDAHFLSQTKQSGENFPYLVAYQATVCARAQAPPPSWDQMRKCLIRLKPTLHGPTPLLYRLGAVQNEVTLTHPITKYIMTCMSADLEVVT
UniProt P27958, 1658-1711: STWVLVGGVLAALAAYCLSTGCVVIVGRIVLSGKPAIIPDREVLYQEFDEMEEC

Starred links: 1 amine or outer side, 2 acyl side, 3 side chain; linkers in the order of their positions; H or OH if unused. Positions of bridges follow the written chain, without caps; N, C: chain ends. Non-standard residues stand in square brackets, D forms with d. Residues, ends and D or L forms follow the SMILES beside them. Tic(7-O(CH2)6CO) = O=C([C@@H]1Cc2ccc(OCCCCCCC(=O)[*:3])cc2CN1[*:1])[*:2]; X2 = CCC[C@@H](N[*:1])C(=O)C(=O)[*:2]; X1 = CCC[C@H](N[*:1])C(=O)C(=O)[*:2]; Chg = N[C@H](C(=O)O)C1CCCCC1; Phg = N[C@H](C(=O)O)c1ccccc1

The experiment addresses Recombinant heterodimeric HCV NS3/NS4A protease (strain 1a) (Hepatitis C virus genotype 1a, UniProt P27958). The experiment can be described thus: biochemical.
For `CCC[C@@H](NC(=O)[C@@H]1[C@H]2OC3CCCOc4cccc(c4)CC(=O)N[C@@H](C4CCCCC4)C(=O)N1C[C@@H]2O3)C(=O)C(=O)NCC(=O)N[C@H](C(=O)O)c1ccccc1` [Compound 29A], the Ki – broadly, a dissociation constant, usually derived from enzyme kinetics or from competition with a known ligand – was 101 to 100000 nM.

On to `CCCC(NC(=O)[C@@H]1C[C@@H]2CN1C(=O)[C@H](C1CCCCC1)NC(=O)Cc1cccc(c1)OCCCCO2)C(=O)C(=O)NCC(=O)N[C@H](C(=O)OC(C)(C)C)c1ccccc1` (mixture of isomers) [Compound 5], for which the inhibitory constant (Ki) fell in the range of 1 to 100 nM.

In the case of `CCCC(NC(=O)[C@@H]1Cc2ccc3cc2CN1C(=O)[C@H](C1CCCCC1)NC(=O)CCc1ccc(cc1)O3)C(=O)C(=O)NCC(=O)N[C@H](C(=O)O)c1ccccc1` (stereo partly drawn) [Compound 61], the Ki was in the range of 101 to 100000 nM.

Regarding `CC1(C)CCCOc2cccc(c2)CC(=O)N[C@@H](C2CCCCC2)C(=O)N2C[C@@H](C[C@H]2C(=O)NC(CC2CC2)C(=O)C(N)=O)O1` (stereo partly drawn) [Compound 109], the Ki was 101 to 100000 nM.

Consider `C=CCNC(=O)C(=O)C(CC=C)NC(=O)[C@@H]1C[C@@H]2CN1C(=O)[C@H](C1CCCCC1)NC(=O)Cc1cccc(c1)OCCC(C)(C)O2` (stereo partly drawn) [Compound 89], for which the Ki was 101 to 100000 nM.

On to `CCC[C@H](NC(=O)[C@@H]1C[C@@H]2CN1C(=O)[C@H](C1CCCCC1)NC(=O)N(C)Cc1cccc(c1)OCCC(C)(C)O2)C(=O)C(=O)NCC(=O)N[C@H](C(=O)N(C)C)c1ccccc1` [Compound 67B], for which the Ki was 1 to 100 nM.

For the molecule `CCCC(NC(=O)[C@@H]1C[C@@H]2CN1C(=O)[C@H](C(C)CC)NC(=O)Cc1cccc(c1)OCCC(C)(C)O2)C(=O)C(N)=O` (stereo partly drawn) [Compound 103], the inhibition constant Ki lay within 101 to 100000 nM.

Turning to `CCCC(NC(=O)[C@@H]1C[C@@H]2CN1C(=O)[C@H](C1CCCCC1)NC(=O)Cc1cccc(c1)OCCCO2)C(=O)C(=O)NCC(=O)N[C@H](C(=O)O)c1ccccc1` (stereo partly drawn) [Compound 3], the inhibition constant Ki was 1 to 100 nM.

On to `CCCC(NC(=O)[C@@H]1C[C@@H]2CN1C(=O)[C@H](C1CCCCC1)NC(=O)Cc1cccc(c1)OCCC(C)(C)O2)C(=O)C(=O)NCCC(=O)OC(C)(C)C` (stereo partly drawn) [Compound 91], for which the Ki fell in the range of 101 to 100000 nM.

As for `CCCC(NC(=O)[C@@H]1C[C@@H]2CN1C(=O)[C@H](C1CCCCC1)NC(=O)Cc1cccc(c1)OCCO2)C(=O)C(=O)NCC(=O)N[C@H](C(=O)O)c1ccccc1` (stereo partly drawn) [Compound 9], the inhibition constant Ki was in the range of 1 to 100 nM.

For `CCCC(NC(=O)[C@@H]1C[C@@H]2CN1C(=O)[C@H](C1CCCCC1)NC(=O)Cc1cccc(c1)OCCC(C)(C)O2)C(=O)C(=O)NCC(=O)O` (stereo partly drawn) [Compound 81], the Ki was in the range of 101 to 100000 nM.

On to `CCCC[C@H](NC(=O)[C@@H]1C[C@@H]2CN1C(=O)[C@H](C(C)(C)C)NC(=O)Cc1cccc(c1)OCCCO2)C(=O)C(=O)NCC(=O)N[C@H](C(=O)N(C)C)c1ccccc1` [Compound 13B], for which the Ki was in the range of 1 to 100 nM.

Turning to `CCC[C@@H](NC(=O)[C@@H]1Cc2ccc3cc2CN1C(=O)[C@H](C1CCCCC1)NC(=O)CCCCCCO3)C(=O)C(=O)NCC(=O)N[C@H](C(=O)O)c1ccccc1` [Compound 59A] ([Chg][Tic(7-O(CH2)6CO)][X2]G[Phg]-OH; lactam N-2), the Ki lay in the range of 1 to 100 nM.

As for `CCCC(NC(=O)[C@@H]1C[C@@H]2CN1C(=O)[C@H](C1CCCCC1)NC(=O)Nc1cccc(c1)OCCCO2)C(=O)C(=O)NCC(=O)N[C@H](C(=O)N(C)C)c1ccccc1` (stereo partly drawn) [Compound 26A], the Ki lay within 101 to 100000 nM.

Take `CCCC(NC(=O)[C@@H]1C[C@@H]2CN1C(=O)[C@H](C1CCCCC1)NC(=O)Cc1cccc(c1)OCCCN2S(=O)(=O)c1ccccc1)C(=O)C(=O)NCC(=O)N[C@H](C(=O)N(C)C)c1ccccc1` (stereo partly drawn) [Compound 43]: the Ki lay in the range of 1 to 100 nM.

`CCC[C@H](NC(=O)[C@@H]1[C@H]2OC3CCCOc4cccc(c4)CC(=O)N[C@@H](C4CCCCC4)C(=O)N1C[C@@H]2O3)C(=O)C(=O)NCC(=O)N[C@H](C(=O)OC(C)(C)C)c1ccccc1` [Compound 28B]: the Ki lay in the range of 1 to 100 nM.

On to `CCCC(NC(=O)[C@@H]1C[C@@H]2CN1C(=O)[C@H](C1CCCCC1)NC(=O)Cc1cccc(c1)OCCO2)C(=O)C(=O)NCC(=O)N[C@H](C(=O)OC(C)(C)C)c1ccccc1` (mixture of isomers) [Compound 8], for which the inhibitory constant (Ki) was in the range of 101 to 100000 nM.

In the case of `CCCC(NC(=O)[C@@H]1C[C@@H]2CN1C(=O)[C@H](C1CCCCC1)NC(=O)Cc1cccc(c1)OCCCCO2)C(=O)C(=O)NCC(=O)N[C@H](C(=O)O)c1ccccc1` (stereo partly drawn) [Compound 6], the Ki lay in the range of 1 to 100 nM.

Turning to `CCCCC(NC(=O)[C@@H]1C[C@@H]2CN1C(=O)[C@H](C1CCCCC1)NC(=O)Cc1cccc(c1)OCCC(C)(C)O2)C(=O)C(N)=O` (stereo partly drawn) [Compound 85], the inhibitory constant (Ki) lay within 101 to 100000 nM.

Turning to `CCC[C@@H](NC(=O)[C@@H]1C[C@@H]2CN1C(=O)[C@H](C1CCCCC1)NC(=O)N(C)Cc1cccc(c1)OCCC(C)(C)O2)C(=O)C(=O)NCC(=O)N[C@H](C(=O)N(C)C)c1ccccc1` [Compound 67A], the Ki was 101 to 100000 nM.

`CCCC[C@@H](NC(=O)[C@@H]1C[C@@H]2CN1C(=O)[C@H](C(C)(C)C)NC(=O)Cc1cccc(c1)OCCCO2)C(=O)C(=O)NCC(=O)N[C@H](C(=O)N(C)C)c1ccccc1` [Compound 13A]: the Ki is 101 to 100000 nM.

For the molecule `CCC[C@H](NC(=O)[C@@H]1Cc2ccc3cc2CN1C(=O)[C@H](C1CCCCC1)NC(=O)CCCCCCO3)C(=O)C(=O)NCC(=O)N[C@H](C(=O)N(C)C)c1ccccc1` [Compound 57B] ([Chg][Tic(7-O(CH2)6CO)][X1]G[Phg]-NMe2; lactam N-2), the Ki was 1 to 100 nM.

In the case of `CCCC(NC(=O)[C@@H]1C[C@@H]2CN1C(=O)C(C1CCC(C(=O)O)CC1)NC(=O)Cc1cccc(c1)OCCCO2)C(=O)C(=O)NCC(=O)N[C@H](C(=O)N(C)C)c1ccccc1` (stereo partly drawn) [Compound 15], the Ki was in the range of 1 to 100 nM.

For the molecule `CCCC(NC(=O)[C@@H]1[C@@H]2CCN1C(=O)[C@H](C(C)(C)C)NC(=O)Cc1cccc(c1)OCCCO2)C(=O)C(=O)NCC(=O)N[C@H](C(=O)N(C)C)c1ccccc1` (stereo partly drawn) [Compound 110], the Ki lay in the range of 1 to 100 nM.
